# In PubChem BioAssay AID1789 (The Scripps Research Institute Molecular Screening Center, 2009):
# Only a part is listed here, and it is no random draw. Calls of active or inactive are those of the source.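 The calls were made as follows: active = inhibition above the screen-wide mean plus 3 SD, computed separately per campaign (cut at about 16% in these data); inactive = the rest.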
# System: Heat shock protein HSP 90 (rabbit reticulocyte lysate; luciferase refolding)
# Assay: inhibitors of HSP90 chaperone activity – cell lysate, luminescence, primary screen (AID 1789);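 also: 0% = DMSO wells and 100% = 60 µM geldanamycin wells; inhibitors lower the luminescence because luciferase stays unfolded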
# Settings: 3 h, at 5.6 µM, stronger effect = higher value
row,Structure (SMILES),inhibition
1,CN(C)C1(CNC(=O)c2ccc(S(C)(=O)=O)cc2)CCCCC1,inactive: -0.87%
2,O=P1(Nc2ncccn2)COc2ccccc2OC1,inactive: -0.84%
3,O=P1(Nc2ccc(Br)cn2)COc2ccccc2OC1,inactive: 0.96%
4,O=[As](O)(c1cccs1)c1cccs1,inactive: 2.05%
5,Cc1ccc(OCC(=O)OC2CN3CCC2CC3)cc1 (stereo not drawn),inactive: 0.56%
6,Nc1cccc([As](=O)(O)c2ccccc2)c1,inactive: 3.88%
7,CCOC(=O)Nc1ccc([As](=O)(O)O)c(O)c1,inactive: 0.55%
8,Cc1cc(SC(NC(=O)c2ccccc2)C(Cl)(Cl)Cl)nc(C(C)C)n1 (stereo not drawn),inactive: -1.04%
9,CCCCOc1ccc(C(=O)NCC2(N3CCCCC3)CCCCC2)cc1OC,inactive: 3.65%
10,CCOC(=O)Nc1cccc([As](=O)(O)O)c1,inactive: 8.01%
11,O=[N+]([O-])c1ccc(Nc2ccc(Oc3ccc([N+](=O)[O-])cc3[N+](=O)[O-])cc2)c([N+](=O)[O-])c1,inactive: -2.68%
12,Cc1cc(SC(NC=O)C(Cl)(Cl)Cl)ncn1 (stereo not drawn),inactive: 1.36%
13,O=P(Nc1ccccn1)(c1cccc2ccccc12)c1cccc2ccccc12,inactive: 1.3%
14,COP1(=S)c2c(C)nn(CCC#N)c2N=C(c2ccc(F)cc2)N1C (stereo not drawn),inactive: 0.45%
15,O=C(Nc1ccncc1[N+](=O)[O-])c1ccc([N+](=O)[O-])cc1[N+](=O)[O-],inactive: 3.69%
16,O=C(COc1ccccc1)OC1CN2CCC1CC2 (stereo not drawn),inactive: -1.11%
17,CCOC(=O)c1ccc(NC(=O)C(C)(CCl)SC)cc1 (stereo not drawn),inactive: -4.4%

row,Structure (SMILES),inhibition
1,O=C(OC1CN2CCC1CC2)c1cccc([N+](=O)[O-])c1 (stereo not drawn),inactive: -2.56%
2,CCC(C)N(CC(C)C)C(=S)SC(NC(C)=O)C(Cl)(Cl)Cl (stereo not drawn),inactive: 3.31%
3,Cc1cc(=O)[nH]c(N[N+](=O)[O-])n1,inactive: -2.23%
4,O=C(OC1CN2CCC1CC2)C12CC3CC(CC(C3)C1)C2 (stereo not drawn),inactive: 2.23%
5,Cc1c2c(nc3ccccc13)SC(C(Cl)Cl)C2 (stereo not drawn),inactive: -2.47%
6,COc1cc(I)ccc1[As](=O)(O)O,inactive: 5.01%
7,COc1ccc2nc(NP(=O)(c3ccccc3)c3ccccc3)sc2c1,inactive: 3.3%
8,COc1ccc(N/C(=N/P(=O)(N2CCOCC2)N2CCOCC2)N2CCOCC2)cc1,inactive: -4.26%
9,C[As](=O)(O)c1cccc(C(=O)O)c1,inactive: 1.22%
10,Cc1ccc2nc3c(c(C)c2c1)CC(C(Cl)Cl)S3 (stereo not drawn),inactive: -3.19%
11,Cc1ccc(OP(=O)(Nc2ccc([N+](=O)[O-])cn2)Oc2ccc(C)cc2)cc1,inactive: 0.28%
12,CC(C)c1ccc(OP(=O)(Nc2ccccn2)Oc2ccccc2F)cc1 (stereo not drawn),inactive: -4.73%
13,ClCCSc1nnc(-c2cccnc2)o1,inactive: -0.57%
14,O=[N+]([O-])c1cc([N+](=O)[O-])c(-c2ccn[nH]2)s1,inactive: 0.38%
15,CCN(CC)C(=S)SC(NC=O)C(Cl)(Cl)Cl (stereo not drawn),inactive: -0.5%
16,CC(C)NC(=O)NP(=O)(Oc1ccccc1)Oc1ccccc1,inactive: 2.73%
